Laboratory results reported in patent publication US20260232830A1, “ANTIGEN BINDING MOLECULE SPECIFICALLY BINDING TO EGFR AND MUC1, DRUG CONJUGATE THEREOF, AND MEDICAL USE THEREOF” (Jiangsu Hengrui Pharmaceuticals Co., Ltd., priority 2023, published 2026).
Numbering of substitutions follows the chain as printed.

Protein sequences, listed by entry. Tags and fused reporters are not part of them. Chains listed by the source or under a name are the forms on record and can include a tag or linker.
UniProt P15941, with tags, fused parts or gaps: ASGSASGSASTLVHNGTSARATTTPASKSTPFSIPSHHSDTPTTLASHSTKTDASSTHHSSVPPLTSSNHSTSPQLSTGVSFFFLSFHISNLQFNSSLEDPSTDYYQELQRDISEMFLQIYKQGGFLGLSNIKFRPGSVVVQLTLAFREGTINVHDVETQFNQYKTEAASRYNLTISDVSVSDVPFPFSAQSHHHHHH

B1: F4-18-H5L3: humanized antibody of F4-18: huF4-18VH5 + huF4-18VL3 (antibody)
heavy: EVQLVQSGAEVVKPGASVKMSCKTSGYTFTSYGINWVRQRPGQGLEWIGYIYLGSDYTEYNEKFKGRVTLTSDTSASTAYMELSSLRSEDTAVYYCARSAGSLFGYWGQGTLVTVSSASTKGPSVFPLAPSSKSTSGGTAALGCLVKDYFPEPVTVSWNSGALTSGVHTFPAVLQSSGLYSLSSVVTVPSSSLGTQTYICNVNHKPSNTKVDKKV[human IgG1 Fc not spelt out]
light: DIQLTQSPSSLSASVGDRVTITCRASQDIGITLNWLQQKPGKAIKRLIYATSSLDSGVPSRFSGSRSGSDYTLTISSLQPEDFATYYCLQYASSPYTFGGGTKVEIKRTVAAPSVFIFPPSDEQLKSGTASVVCLLNNFYPREAKVQWKVDNALQSGNSQESVTEQDSKDSTYSLSSTLTLSKADYEKHKVYACEVTHQGLSSPVTKSFNRGEC
B2: F4-18-H1L4: humanized antibody of F4-18: huF4-18VH1 + huF4-18VL4 (antibody)
heavy: B1 heavy with V12K, M20V, T24A, R40A, G44R, I48M, G105A
light: B1 light with K39E, K42G, S60K
B3: F4-18-H2L4: humanized antibody of F4-18: huF4-18VH2 + huF4-18VL4 (antibody)
heavy: B1 heavy with V12K, M20V, T24A, G105A
light: B1 light with K39E, K42G, S60K
B4: F4-18-H4L4: humanized antibody of F4-18: huF4-18VH4 + huF4-18VL4 (antibody)
heavy: B1 heavy with A100G, G105A
light: B1 light with K39E, K42G, S60K
B5: M6-H1L3: humanized antibody of M6: huM6VH1 + huM6VL3 (antibody)
heavy: EVQLVQSGAEVKKPGASVKVSCKASGYTFTPYWIEWVRQAPGQGLEWMGEILPGTGRTNYNEKFKGRVTFTADTSTNTVYMELSSLRSEDTAVYYCARYGDDTSGGYYAVDYWGQGTTVTVSSASTKGPSVFPLAPSSKSTSGGTAALGCLVKDYFPEPVTVSWNSGALTSGVHTFPAVLQSSGLYSLSSVVTVPSSSLGTQTYICNVNHKPSNTKVDKKV[human IgG1 Fc not spelt out]
light: DIVMTQSPATLSLSPGERATLSCRASESVNILGTNLIHWYQQKPGQAPKLLIYHASNLETGIPARFSGSGSRTDFTLTISSLEPEDVAVYYCLQSRKIPWTFGGGTKVEIKRTVAAPSVFIFPPSDEQLKSGTASVVCLLNNFYPREAKVQWKVDNALQSGNSQESVTEQDSKDSTYSLSSTLTLSKADYEKHKVYACEVTHQGLSSPVTKSFNRGEC
B6: M6-H2L1: humanized antibody of M6: huM6VH2 + huM6VL1 (antibody)
heavy: B5 heavy with T28R, T30I
light: DIVMTQSPDSLAVSLGERATINCRASESVNILGTNLIHWYQQKPGQPPKLLIYHASNLETGVPDRFSGSGSRTDFTLTISSLQAEDVAVYYCLQSRKIPWTFGGGTKVEIKRTVAAPSVFIFPPSDEQLKSGTASVVCLLNNFYPREAKVQWKVDNALQSGNSQESVTEQDSKDSTYSLSSTLTLSKADYEKHKVYACEVTHQGLSSPVTKSFNRGEC
B7: M6-H2L3: humanized antibody of M6: huM6VH2 + huM6VL3 (antibody)
heavy: B5 heavy with T28R, T30I
light: B5 light
B8: M6-H3L1: humanized antibody of M6: huM6VH3 + huM6VL1 (antibody)
heavy: B5 heavy with T28R, T30I, A40R
light: B6 light
B9: M6-H3L3: humanized antibody of M6: huM6VH3 + huM6VL3 (antibody)
heavy: B5 heavy with T28R, T30I, A40R
light: B5 light
B10: M6-H4L1: humanized antibody of M6: huM6VH4 + huM6VL1 (antibody)
heavy: B5 heavy with T28R, T30I, Q39E, A40R, Q43H, R87T
light: B6 light
B11: M6-H4L3: humanized antibody of M6: huM6VH4 + huM6VL3 (antibody)
heavy: B5 heavy with T28R, T30I, Q39E, A40R, Q43H, R87T
light: B5 light
B12: F4-1-H1L2: humanized antibody of F4-1: huF4-1VH1 + huF4-1VL2 (antibody)
heavy: EVQLVQSGAEVKKPGASVKVSCKASGYTFTDNYINWVRQAPGQRLEYMGWIYPGSGNNKFNEKFKGRVTITVDTSASTAYMELSSLRSEDTAVYYCARDYPFPSYHYGMDYWGQGTTVTVSSASTKGPSVFPLAPSSKSTSGGTAALGCLVKDYFPEPVTVSWNSGALTSGVHTFPAVLQSSGLYSLSSVVTVPSSSLGTQTYICNVNHKPSNTKVDKKV[human IgG1 Fc not spelt out]
light: DIQLTQSPSSLSASVGDRVTITCSASSSVSYIHWFQQKPGKAPKLWIYSTSNLASGVPSRFSGSGSGTDFTLTVSSLQPEDFATYYCQQRSSYPPTFGGGTKVEIKRTVAAPSVFIFPPSDEQLKSGTASVVCLLNNFYPREAKVQWKVDNALQSGNSQESVTEQDSKDSTYSLSSTLTLSKADYEKHKVYACEVTHQGLSSPVTKSFNRGEC
B13: F4-1-H2L2: humanized antibody of F4-1: huF4-1VH2 + huF4-1VL2 (antibody)
heavy: B12 heavy with M48I, I70L, S77R
light: B12 light
B14: F4-1-H1L4: humanized antibody of F4-1: huF4-1VH1 + huF4-1VL4 (antibody)
heavy: B12 heavy
light: B12 light with K41T, A42S, S59P, D69S
B15: F4-18-H1L1: humanized antibody of F4-18: huF4-18VH1 + huF4-18VL1 (antibody)
heavy: B1 heavy with V12K, M20V, T24A, R40A, G44R, I48M, G105A
light: B1 light with L4M, L36Y, I44P, S69T
B16: F4-18-H2L1: humanized antibody of F4-18: huF4-18VH2 + huF4-18VL1 (antibody)
heavy: B1 heavy with V12K, M20V, T24A, G105A
light: B1 light with L4M, L36Y, I44P, S69T

Molecular target: T1, human MUC1-C-L-his antigen (Homo sapiens, UniProt P15941)
T1 construct: made in house; host or cells: 293 cells (transient, pTT5 vector)
Experiment: Determination of affinity of anti-MUC1-C antibodies using Biacore
Conditions: Biacore 8K, antibody captured on Protein A chip, 1:1 binding model
Procedure: • 1. Instrument: Biacore 8K, Cytiva • 2. Material: Protein A biosensor chip (Cat. #29127556, Cytiva) • 3.
The affinity of the antibodies of the present disclosure for the human MUC1-C-L-His antigen was determined using a Biacore 8K instrument.
Method: An antibody molecule was affinity-captured by a Protein A biosensor chip, and the antigen molecule, at a certain concentration, was then allowed to flow through the surface of the chip continuously for 180 s, followed by 600 s of natural dissociation. The reaction signals were detected in real time by the Biacore 8K instrument to obtain an association and dissociation curve. After the dissociation in each experimental cycle was complete, the biosensor chip was regenerated with 10 mM glycine-HCl (pH 1.5). Data fitting was performed using the Kinetics 1:1 binding model.

Molecule	ka	kd
B1	150000 M⁻¹ s⁻¹	0.00351 s⁻¹
B2	184000 M⁻¹ s⁻¹	0.000943 s⁻¹
B3	159000 M⁻¹ s⁻¹	0.000915 s⁻¹
B4	188000 M⁻¹ s⁻¹	0.00165 s⁻¹
B5	247000 M⁻¹ s⁻¹	0.00432 s⁻¹
B6	229000 M⁻¹ s⁻¹	0.000896 s⁻¹
B7	216000 M⁻¹ s⁻¹	0.000994 s⁻¹
B8	206000 M⁻¹ s⁻¹	0.000795 s⁻¹
B9	177000 M⁻¹ s⁻¹	0.000951 s⁻¹
B10	260000 M⁻¹ s⁻¹	0.000784 s⁻¹
B11	246000 M⁻¹ s⁻¹	0.000962 s⁻¹
B12	305000 M⁻¹ s⁻¹	0.0014 s⁻¹
B13	288000 M⁻¹ s⁻¹	0.00176 s⁻¹
B14	302000 M⁻¹ s⁻¹	0.00175 s⁻¹
B15	133000 M⁻¹ s⁻¹	0.00268 s⁻¹
B16	123000 M⁻¹ s⁻¹	0.00224 s⁻¹
